PGC1a acetyl inh = lowers PGC1a acetylation signal in U2OS cells. AlphaScreen anti-acetyl-lysine; with virally co-expressed GCN5 acetyltransferase. inhibition, % at 15.6 µM. 350,000 compounds, 0.17% hits. AID 651687;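 active = every replicate shows inhibition of at least 40%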;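 note: 0% = neutral control wells and 100% = positive control wells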
hiPSC survival = enhancers of human iPSC single-cell survival; survival enhancement, % at 20 µM; AID 602274; 360,000 compounds, 0.044% hits; hiPSC single-cell survival, ATPlite luminescence; 100% = ROCK inhibitor wells, 0% = DMSO; in the data active = survival enhancement above about 18%;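 note: cells exposed to compounds for 16 hours before the ATP read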
UUG fidelity = alters start codon recognition fidelity in yeast. S. cerevisiae UUG-firefly luciferase reporter, luminescence/redox ratio. activity score, % at 18.7 µM. 0.13% of 350,000 active. AID 602363;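 active = replicate mean at a twofold rise or more, about +100% in these data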;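 also: firefly luciferase made from a UUG start codon reports start codon fidelity; reporter light over untreated wells divided by growth signal over untreated wells; some hits fall short of that in this replicate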
Statin myotox sup = suppressors of simvastatin-induced myotoxicity in C2C12 myotubes. 330,000 compounds, 0.78% hits. ATP luminescence, 48 h; scaled: DMSO 0, geranylgeraniol control 100. rescue of ATP level, % at 7.49 µM;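 active = mean ATP rescue above about 67%, or every replicate alone reaching that limit, limit read from the data, passing the limit was not always enough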;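 note: myotubes were challenged with 10 µM simvastatin during compound exposure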
FN deposition inh = fibronectin deposition inhibition; AH1F fibroblasts, Alexa488-fibronectin deposition fluorescence, overnight; inhibition, % at 12.6 µM; 350,000 compounds, 0.086% hits;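 active = mean inhibition across replicates of 30% or more, regardless of how many single replicates reach that level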;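 note: positive control wells lacked labelled fibronectin entirely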
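Measured by – fluorescence 485/525 nm · System – AH1F fibroblast monolayer, labelled fibronectin deposition · Amount – 10000 cells per well · Buffer or medium – serum-reduced DMEM (2% serum) · Doses – single dose, pinned · Also added – fluorescent fibronectin at 24 nM final · Schedule – 1 h cell attachment, overnight exposure to compound and label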
Numbers without * were called inactive. Hits are enriched below; roughly 0.91% of the tested compounds scored in any of these assays.

O=C1C=C(c2ccccc2)C[C@@H](c2ccc3c(c2)OCO3)C1 was read as PGC1a acetyl inh -26, hiPSC survival -2, UUG fidelity -4, Statin myotox sup 8 and FN deposition inh 19.
For O=C1C=C(c2cccc(Cl)c2)C[C@@H](c2ccc3c(c2)OCO3)C1 the results were PGC1a acetyl inh -7, hiPSC survival -1, UUG fidelity 4, Statin myotox sup 134* and FN deposition inh 6.
`O=C(Nc1ccccc1Cl)NC1(C(=O)NCc2ccncc2)CCCCC1` gave PGC1a acetyl inh -1, hiPSC survival 0, UUG fidelity -17, Statin myotox sup 0 and FN deposition inh -1.
For O=C(NCc1ccncc1)Nc1ccccc1Cl the results were PGC1a acetyl inh -5, hiPSC survival -4, UUG fidelity -1, Statin myotox sup 116* and FN deposition inh 4.
Screening Fc1cccc(CN2[C@@H]3CNC[C@H]2C3c2ccc(-c3cccc(F)c3)cc2)c1 (stereo partly specified) returned PGC1a acetyl inh -4 and FN deposition inh 1.
CN1C/C(=C/c2cccnc2)C(=O)/C(=C/c2cccnc2)C1 was read as hiPSC survival 24* and FN deposition inh 8.
Cc1nc(-c2ccc(NC(=O)c3ccco3)cc2)cs1 was read as PGC1a acetyl inh -1, hiPSC survival -1, UUG fidelity -86, Statin myotox sup -122 and FN deposition inh -3.
Screening Cc1ccn2cc(-c3ccc(NC(=O)c4ccco4)cc3)nc2c1 returned hiPSC survival -2, UUG fidelity -3, Statin myotox sup -40 and FN deposition inh 32*.
Screening C[C@@H]1CN([C@H](C)CO)C(=O)c2cc(NC(=O)CCCCCC(=O)Nc3ccccc3N)ccc2O[C@@H]1CN(C)C(=O)Nc1ccc2c(c1)OCO2 returned PGC1a acetyl inh 6 and UUG fidelity 24.
COc1ccc(S(=O)(=O)NNC(=O)c2sccc2-n2cccc2)cc1 was read as PGC1a acetyl inh 2, hiPSC survival -1, UUG fidelity -13, Statin myotox sup 96* and FN deposition inh -7.
For Cc1ccc(SCCNC(=S)Nc2cc(C)ccc2C)cc1 the results were PGC1a acetyl inh 5, hiPSC survival -3, UUG fidelity -21 and Statin myotox sup 73*.
Cc1ccc(SCCNC(=S)Nc2ccc(C)c(C)c2)cc1 was read as PGC1a acetyl inh 9, hiPSC survival -2, UUG fidelity -24, Statin myotox sup -8 and FN deposition inh 1.
Screening CC(C)CC(=O)/C(=C\c1ccc(Cl)cc1Cl)n1cncn1 returned PGC1a acetyl inh 60*, hiPSC survival -6, UUG fidelity -32 and Statin myotox sup 4.
Screening C[C@@H]1CN(C)C(=O)Cc2cc(N)ccc2O[C@H]1CN(C)S(C)(=O)=O returned FN deposition inh 2.
COc1ccccc1NC(=S)NC1CC2CCC1C2 (stereo unspecified) was read as PGC1a acetyl inh -10, hiPSC survival 0, UUG fidelity -33, Statin myotox sup 126* and FN deposition inh 4.
CCC(=O)NC(=S)Nc1ccccc1OC was read as PGC1a acetyl inh 9, hiPSC survival -1, UUG fidelity -15 and Statin myotox sup 133*.
CCCC(=O)NC(=S)Nc1ccccc1OC was read as PGC1a acetyl inh 4, hiPSC survival -2, UUG fidelity -13, Statin myotox sup -10 and FN deposition inh 1.
`Cc1ccccc1-c1ccc2c(c1)O[C@@H](CN(C)CC1CC1)[C@@H](C)CN([C@H](C)CO)S2(=O)=O` gave PGC1a acetyl inh -16, UUG fidelity 22, Statin myotox sup -18 and FN deposition inh 12.
`O=C(C[C@@H]1C=C[C@@H](NC(=O)Nc2ccc(C(F)(F)F)cc2)[C@@H](CO)O1)NCc1ccccn1` gave PGC1a acetyl inh -6, UUG fidelity 12, Statin myotox sup -2 and FN deposition inh 5.
Screening O=C(Nc1ccc2nn(-c3ccccc3)nc2c1)c1cccnc1 returned PGC1a acetyl inh -36, hiPSC survival -3, UUG fidelity -23 and Statin myotox sup 130*.

Filtered by structure, those above containing an aryl methoxy group.
COc1ccc(S(=O)(=O)NNC(=O)c2sccc2-n2cccc2)cc1 was read as PGC1a acetyl inh 2, hiPSC survival -1, UUG fidelity -13, Statin myotox sup 96* and FN deposition inh -7.
COc1ccccc1NC(=S)NC1CC2CCC1C2 (stereo unspecified) was read as PGC1a acetyl inh -10, hiPSC survival 0, UUG fidelity -33, Statin myotox sup 126* and FN deposition inh 4.
CCC(=O)NC(=S)Nc1ccccc1OC was read as PGC1a acetyl inh 9, hiPSC survival -1, UUG fidelity -15 and Statin myotox sup 133*.
CCCC(=O)NC(=S)Nc1ccccc1OC was read as PGC1a acetyl inh 4, hiPSC survival -2, UUG fidelity -13, Statin myotox sup -10 and FN deposition inh 1.

Additional compounds:
`Fc1ccc(F)c(CN2[C@@H]3CNC[C@H]2C3c2ccc(-c3ccncc3)cc2)c1` (stereo partly specified) gave FN deposition inh -13.
Screening CSc1ccccc1NC(=O)c1ccccc1N(Cc1ccccc1)S(C)(=O)=O returned PGC1a acetyl inh -29, hiPSC survival 0, UUG fidelity 16 and Statin myotox sup 102*.
CS(=O)(=O)N1CCN(C(=O)c2c(F)cccc2F)CC1 was read as PGC1a acetyl inh 8, hiPSC survival 4 and Statin myotox sup 20.
For CN(c1ccccc1C(=O)N1CCOCC1)S(C)(=O)=O the results were PGC1a acetyl inh -2, hiPSC survival 9 and UUG fidelity -25.
CN(c1ccccc1C(=O)N1CCCC1)S(C)(=O)=O was read as PGC1a acetyl inh -8, hiPSC survival 0, UUG fidelity 28 and Statin myotox sup 100*.
CS(=O)(=O)N1CCN(C(=O)c2ccccc2F)CC1 was read as PGC1a acetyl inh 8, hiPSC survival 0, UUG fidelity -11, Statin myotox sup 95* and FN deposition inh 5.
CCCNC(=O)c1ccccc1NC(=O)c1ccccc1N(C)S(C)(=O)=O was read as PGC1a acetyl inh 0, hiPSC survival 6, UUG fidelity -6 and Statin myotox sup 103*.
Screening CN1C(=O)c2cc(NC(=O)c3ccc(F)cc3)ccc2OC[C@@H]2O[C@@H](CC(=O)NCC3CCCCC3)CC[C@@H]21 returned PGC1a acetyl inh -7, UUG fidelity 2, Statin myotox sup 10 and FN deposition inh 7.
`O=C(C1CCC1)N1CC(=O)N2[C@H](C1)[C@H](c1ccc(C#CCc3ccccc3)cc1)[C@@H]2CO` gave PGC1a acetyl inh -5 and FN deposition inh 3.
`CCOc1cc(C(=O)N(C)Cc2cc3ccccc3[nH]c2=O)cc(OCC)c1OCC` gave PGC1a acetyl inh -8, hiPSC survival 4, UUG fidelity 1 and Statin myotox sup 98*.
CC(C)N(Cc1cc2ccccc2[nH]c1=O)C(=O)c1cccnc1 was read as PGC1a acetyl inh -4, hiPSC survival -2 and Statin myotox sup 88*.
Screening CCOc1ccccc1C(=O)N(C)Cc1cc2ccccc2[nH]c1=O returned PGC1a acetyl inh -10, hiPSC survival 3, UUG fidelity 4 and Statin myotox sup -9.
For COC(=O)c1ccc(CN2CC(=O)N3[C@H](CO)[C@@H](c4ccc(Br)cc4)[C@@H]3C2)cc1 the results were PGC1a acetyl inh 15.
CC(NC(=O)C1CC=CCC1C(=O)O)C1CC2CCC1C2 (stereo unspecified) was read as PGC1a acetyl inh 0, hiPSC survival 0, UUG fidelity -8, Statin myotox sup 98* and FN deposition inh 11.
Cc1ccsc1C(=O)Nc1cc(Cl)ccc1-n1cncn1 was read as PGC1a acetyl inh 61*, hiPSC survival 0, UUG fidelity -18, Statin myotox sup 13 and FN deposition inh -1.
